# Measured affinities in a library of Ab-95 light chain variants

Values reported by Engelhart et al. 2022, doi:10.1038/s41597-022-01779-4 (FLAb copy).

Antigen: PDVDLGDISGINAS, a 14-residue peptide of the SARS-CoV-2 spike HR2 region.

Parent: Ab-95, a human scFv built as VH, a (GGGGS)3 linker, VL. Only the CDRs of the light chain vary.
VH: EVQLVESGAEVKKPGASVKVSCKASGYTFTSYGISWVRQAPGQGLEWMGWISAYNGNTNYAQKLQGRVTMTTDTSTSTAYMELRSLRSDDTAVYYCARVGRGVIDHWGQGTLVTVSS
VL: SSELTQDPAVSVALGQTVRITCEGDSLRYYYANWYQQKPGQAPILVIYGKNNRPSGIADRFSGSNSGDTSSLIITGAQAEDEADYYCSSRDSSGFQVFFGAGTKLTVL

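AAYL52 was designed without a model: most single CDR substitutions and a random sample of double and triple ones. AlphaSeq pools MATa yeast showing the antibodies with MATalpha yeast showing the peptide. Binding brings cells together so that they mate, and sequencing counts the barcode pairs among the diploids. A regression on co-assayed BCL2-family reference pairs converts the normalised counts of each replicate to an apparent Kd. Each pool was mated in three replicate cultures.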

Each variant is given by its three light chain CDRs, as the data file delimits them; those of the parent are EGDSLRYYYAN, GKNNRPS, SSRDSSGFQVF.
Scale: log10 of Kd in nM, estimated from mating counts; low values are strong binders.
A mean of the replicates is given; it leaves out those without a signal.
A pair that was not seen in any replicate is written "nd"; this usually means weak binding, but a binder can also be missed.
Nonspecific signal, from three strains lacking the peptide, appeared in 28% of pairings of library AAYL52, centred on 3.91 (5% of these signals below 2.90); values are not corrected for it.

{"CDR-L1": "EGDSLRYYYAN", "CDR-L2": "IKPDRPS", "CDR-L3": "SSRDSSGFQVF", "mean log10 Kd (nM)": "5.33", "replicates with signal": "2 of 3"}
{"CDR-L1": "EGDSLRYYYTD", "CDR-L2": "GKQNRPS", "CDR-L3": "SSRDSSGFQVF", "mean log10 Kd (nM)": "2.92", "replicates with signal": "2 of 3"}
{"CDR-L1": "PGDSLRYDYAN", "CDR-L2": "GKNNRPH", "CDR-L3": "SSRDSSGFQVF", "mean log10 Kd (nM)": "nd", "replicates with signal": "0 of 3"}
{"CDR-L1": "EGDALRYYYAN", "CDR-L2": "GKNNRPS", "CDR-L3": "SSRDDPGFQVF", "mean log10 Kd (nM)": "2.49", "replicates with signal": "3 of 3"}
{"CDR-L1": "EEDSLRYYYAN", "CDR-L2": "GKNNPPS", "CDR-L3": "KSRDSSGFQVF", "mean log10 Kd (nM)": "3.91", "replicates with signal": "1 of 3"}
{"CDR-L1": "EGDYLRYYYAN", "CDR-L2": "GKNNRPS", "CDR-L3": "VSRDSSTFQVF", "mean log10 Kd (nM)": "3.59", "replicates with signal": "3 of 3"}
{"CDR-L1": "EGDSLRYYYAN", "CDR-L2": "GRNKRPS", "CDR-L3": "SSRDKSGFQVF", "mean log10 Kd (nM)": "2.57", "replicates with signal": "2 of 3"}
{"CDR-L1": "EGDVLRYYYAN", "CDR-L2": "GKNNRPS", "CDR-L3": "SSRDSLGFQFF", "mean log10 Kd (nM)": "3.89", "replicates with signal": "1 of 3"}
{"CDR-L1": "EGDSLRHYYAN", "CDR-L2": "GKNNRPS", "CDR-L3": "SSRDSVGFCVF", "mean log10 Kd (nM)": "2.70", "replicates with signal": "3 of 3"}
{"CDR-L1": "EGDNLRYYYAN", "CDR-L2": "GKNNRPS", "CDR-L3": "SVRDSSGFQVF", "mean log10 Kd (nM)": "3.53", "replicates with signal": "3 of 3"}
{"CDR-L1": "EGDSLRYYYAN", "CDR-L2": "GKNNMPS", "CDR-L3": "SSCDSSAFQVF", "mean log10 Kd (nM)": "4.03", "replicates with signal": "2 of 3"}
{"CDR-L1": "EGDSLRLYYAR", "CDR-L2": "GKNNRPS", "CDR-L3": "SSRDSSGCQVF", "mean log10 Kd (nM)": "3.07", "replicates with signal": "1 of 3"}
{"CDR-L1": "EGDSLRYYYAN", "CDR-L2": "GKNNRPC", "CDR-L3": "SQRDSSGFQVF", "mean log10 Kd (nM)": "4.47", "replicates with signal": "2 of 3"}
{"CDR-L1": "EGDSGRDYYKN", "CDR-L2": "GKNNRPS", "CDR-L3": "SSRDSSGFQVF", "mean log10 Kd (nM)": "1.19", "replicates with signal": "3 of 3"}
{"CDR-L1": "EGDSNRYYYAN", "CDR-L2": "GKNIRTS", "CDR-L3": "SSRDSSGFQVF", "mean log10 Kd (nM)": "nd", "replicates with signal": "0 of 3"}
{"CDR-L1": "EGYSLRYYHAN", "CDR-L2": "GKNNCPS", "CDR-L3": "SSRDSSGFQVF", "mean log10 Kd (nM)": "3.36", "replicates with signal": "2 of 3"}
{"CDR-L1": "EGDSLRDEYAN", "CDR-L2": "GKNNRPS", "CDR-L3": "SSRDSSGFGVF", "mean log10 Kd (nM)": "2.00", "replicates with signal": "3 of 3"}
{"CDR-L1": "EGDSLHIYYYN", "CDR-L2": "GKNNRPS", "CDR-L3": "SSRDSSGFQVF", "mean log10 Kd (nM)": "nd", "replicates with signal": "0 of 3"}
{"CDR-L1": "EGDSLRYYWAN", "CDR-L2": "GKNNRPS", "CDR-L3": "SSRDSCGFQVW", "mean log10 Kd (nM)": "2.89", "replicates with signal": "1 of 3"}